Reference: patent US20040266723A1, “Antiviral agents for treatment of Flaviviridae infections” (priority 2000, published 2004)

Test system: BVDV
Experiment: BVDV real time RT-PCR antiviral assay in MDBK cells
Assay type: cell-based, Bovine viral diarrhea virus (BVDV), strain NADL
Details: dose-response, 24 hours post-infection
Method: As one illustration of this method, in the case of BVDV in MDBK cells, in a first step, viral RNA is isolated from 140 μL of the cell culture supernatant by means of a commercially available column (Viral RNA extraction kit, QiaGen, CA). The viral RNA is then eluted from the column to yield a total volume of 60 μL, and subsequently amplified with a quantitative RT-PCR protocol using a suitable primer for the BVDV NADL strain. A quenched fluorescent probe molecule is hybridized to the BVDV DNA, which then undergoes exonucleolytic degradation resulting in a detectable fluorescent signal. Therefore, the RT-PCR amplified DNA was detected in real time by monitoring the presence of fluorescence signals. The TaqMan probe molecule (5′ 6-fam-[…]-tamara 3′ [Sequence ID No. 7] and primers (sense: 5′-[…]-3′ [Sequence ID No. 8]; and antisense: 5′-[…]-3′ [Sequence ID No. 9]) were designed with the aid of the Primer Express software (PE-Applied Biosystems) to be complementary to the BVDV NADL NS5B region. A total of 10 μL of RNA was analyzed in a 50 μL RT-PCR mixture. Reagents and conditions used in quantitative PCR were purchased from PE-Applied Biosystems. The standard curve that was created using the undiluted inoculum virus ranged from 6000 plaque forming units (PFU) to 0.6 PFU per RT-PCR mixture. […]

Structure (SMILES): COc1c(C)c2c(c(O)c1CCOP(=O)(O)CP(=O)(O)OC[C@H]1O[C@@H](n3cnc4c(N)ncnc43)C(O)[C@H]1O)C(=O)OC2 (stereo partly shown) [C2-MAD]
- intracellular viral RNA reduction, relative effectiveness (FIG. 9): more effective than Tiazofurin
